The target of the assay is T1, human CFTR (Homo sapiens, UniProt P13569).
T1 construct: expressed in transfected cells
The experiment in a line: Apical membrane Cl− current in CFTR-expressing FRT cells. Format: cell-based. The following applies: CFTR activated by CPT-cAMP; basolateral membrane permeabilized, Cl− gradient; inhibitor in apical solution; read-out: apparent IC50 for inhibition of CFTR Cl− current. The protocol:
CFTR Cl^− current was measured in CFTR-expressing FRT cells in which the basolateral membrane was permeabilized by amphotericin B and a transepithelial Cl^− gradient was applied. Under these conditions, the measured current provides a direct quantitative measure of CFTR Cl^− conductance.
Measurements were done to investigate whether the Crofelemer inhibition potency depended on the CFTR activation mechanism. […] The reversibility of crofelemer inhibition of CFTR was investigated, since washout during secretory diarrhea is a concern in the use of a non-absorbable antisecretory agent. […] Following extensive washing, residual CFTR inhibition was determined from the current after re-stimulation by CPT-cAMP. […]
FRT cells (stably expressing CFTR or TMEM16A) were cultured on Snapwell filters until confluence (transepithelial resistance >500 ohm.cm). Short-circuit current was measured in Ussing chambers (Vertical diffusion chamber; Costar) with Ringer's solution bathing the basolateral surface and half-Ringer's bathing the apical surface. […] The basolateral membrane was permeabilized with 20 μM amphotericin B. Short-circuit current was measured using a DVC-1000 voltage-clamp apparatus (World Precision Instruments).

Sequences of proteins named here, by UniProt entry; tags and fusion partners are left off.
UniProt P13569, whole entry: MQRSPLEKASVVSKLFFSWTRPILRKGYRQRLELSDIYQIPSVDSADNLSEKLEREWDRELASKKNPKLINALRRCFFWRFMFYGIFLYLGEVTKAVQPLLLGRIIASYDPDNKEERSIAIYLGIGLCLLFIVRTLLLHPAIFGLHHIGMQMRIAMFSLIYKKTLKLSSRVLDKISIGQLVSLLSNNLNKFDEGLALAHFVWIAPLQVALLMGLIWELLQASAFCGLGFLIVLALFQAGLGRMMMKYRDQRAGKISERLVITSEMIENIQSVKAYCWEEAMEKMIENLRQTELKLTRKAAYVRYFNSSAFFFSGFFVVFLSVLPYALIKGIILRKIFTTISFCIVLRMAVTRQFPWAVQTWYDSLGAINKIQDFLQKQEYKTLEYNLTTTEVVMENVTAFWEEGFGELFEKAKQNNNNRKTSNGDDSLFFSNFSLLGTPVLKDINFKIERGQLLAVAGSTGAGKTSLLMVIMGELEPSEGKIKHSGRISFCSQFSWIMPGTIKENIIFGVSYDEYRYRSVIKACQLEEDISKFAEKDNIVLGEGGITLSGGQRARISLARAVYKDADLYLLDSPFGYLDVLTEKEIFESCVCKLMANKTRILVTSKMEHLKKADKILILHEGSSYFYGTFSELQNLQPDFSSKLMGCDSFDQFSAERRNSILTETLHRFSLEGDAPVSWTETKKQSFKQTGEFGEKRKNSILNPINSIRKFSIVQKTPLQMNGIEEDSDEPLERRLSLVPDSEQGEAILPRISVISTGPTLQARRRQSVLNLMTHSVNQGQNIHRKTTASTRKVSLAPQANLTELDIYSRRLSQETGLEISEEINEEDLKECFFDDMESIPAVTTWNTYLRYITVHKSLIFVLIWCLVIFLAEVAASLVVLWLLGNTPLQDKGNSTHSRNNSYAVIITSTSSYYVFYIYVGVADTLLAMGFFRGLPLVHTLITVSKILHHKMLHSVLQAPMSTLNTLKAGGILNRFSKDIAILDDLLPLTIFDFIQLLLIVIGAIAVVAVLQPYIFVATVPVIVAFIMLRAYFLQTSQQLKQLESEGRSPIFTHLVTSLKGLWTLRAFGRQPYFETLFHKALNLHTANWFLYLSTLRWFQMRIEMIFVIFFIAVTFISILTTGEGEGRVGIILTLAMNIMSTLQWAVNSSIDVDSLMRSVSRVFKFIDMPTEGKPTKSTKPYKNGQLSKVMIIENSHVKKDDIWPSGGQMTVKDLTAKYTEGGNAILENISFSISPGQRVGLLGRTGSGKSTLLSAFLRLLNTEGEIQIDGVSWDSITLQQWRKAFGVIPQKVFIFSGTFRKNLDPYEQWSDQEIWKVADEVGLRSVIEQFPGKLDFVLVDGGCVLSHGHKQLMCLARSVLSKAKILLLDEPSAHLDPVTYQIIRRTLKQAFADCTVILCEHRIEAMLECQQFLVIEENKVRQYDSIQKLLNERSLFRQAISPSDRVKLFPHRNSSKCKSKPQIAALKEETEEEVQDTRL

Results on one substance are retold here after patent US20120202876A1, “METHODS OF TREATING DISEASES WITH PROANTHOCYANIDIN OLIGOMERS SUCH AS CROFELEMER” (NAPO PHARMACEUTICALS, INC., priority 2009, published 2012).

A word on the IC50: it is the concentration that inhibits the measured activity by half.

On to CFTRinh-172, for which the IC50 was around 1 µM.
